Like-named read-outs stand apart in the source and are kept apart here. Values belong to the molecule of their own block, whether it stands above or below them.
Experiments:
recombinant SAMHD1 [1] = molecular target: T1, recombinant SAMHD1 (Homo sapiens, UniProt Q9Y3Z3); assay: High-throughput primary screen, enzyme-coupled malachite green (MG) assay, dGTP substrate, single concentration; format: biochemical; design: His-tag (N); made in house; host or cells: E. coli BL21 (DE3); conditions: for inhibition at 5 µM: compound concentration 5.00E-06 M, 25 μM dGTP, absorbance, hit threshold 23.15%; for Hit: hit flag, hit threshold 23.15% inhibition at 5 μM
[2] = tested on: SAMHD1+/+ and SAMHD1−/− THP-1 cells; conditions: for Antagonism of cytarabine treatment: TH7126 at 50 μM, TH6342, TH7127, TH7528 at around 30 μM; for Sensitization of THP-1 cells to cytarabine: four days, dose-response matrix with cytarabine, SAMHD1+/+ and SAMHD1−/−
recombinant SAMHD1 [3] = molecular target: T1, recombinant SAMHD1; assay: 11-point dose-response curve (DRC) hit validation, enzyme-coupled MG assay (119 μM to 12.5 nM); format: biochemical; design: His-tag (N); made in house; host or cells: E. coli BL21 (DE3); conditions: 11-point dose-response, dGTP substrate
recombinant SAMHD1 [4] = molecular target: T1, recombinant SAMHD1; conditions: Enzymatic, Absorbance

The chains behind the UniProt entries cited, without tags or fusion partners. Where a name states a change or a piece, a line headed by the entry shows the natural chain unless it says otherwise.
UniProt Q9Y3Z3: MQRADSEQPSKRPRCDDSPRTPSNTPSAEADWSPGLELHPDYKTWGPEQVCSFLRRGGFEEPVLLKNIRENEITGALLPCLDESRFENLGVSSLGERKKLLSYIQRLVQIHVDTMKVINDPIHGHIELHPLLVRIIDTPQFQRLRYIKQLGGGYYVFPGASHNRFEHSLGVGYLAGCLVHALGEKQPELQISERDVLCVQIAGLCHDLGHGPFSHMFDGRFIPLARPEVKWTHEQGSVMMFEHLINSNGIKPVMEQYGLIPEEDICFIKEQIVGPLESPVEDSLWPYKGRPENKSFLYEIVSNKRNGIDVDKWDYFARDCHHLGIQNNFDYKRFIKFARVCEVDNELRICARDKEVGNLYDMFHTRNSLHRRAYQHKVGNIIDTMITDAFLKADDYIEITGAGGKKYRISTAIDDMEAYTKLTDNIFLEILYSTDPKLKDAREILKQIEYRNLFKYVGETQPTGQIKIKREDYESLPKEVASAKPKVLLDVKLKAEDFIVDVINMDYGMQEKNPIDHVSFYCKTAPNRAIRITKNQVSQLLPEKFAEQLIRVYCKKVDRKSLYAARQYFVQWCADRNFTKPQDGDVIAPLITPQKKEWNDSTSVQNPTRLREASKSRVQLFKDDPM

inhibition at 5 µM (recombinant SAMHD1 [1]): 2.1%
Hit (recombinant SAMHD1 [1]): 0
SMILES: CCCCNC(=O)N1CCN(c2ccccc2Cl)CC1 [CBK043777]

inhibition at 5 µM (recombinant SAMHD1 [1]): -2.57%
Hit (recombinant SAMHD1 [1]): 0
SMILES: CSc1nc(N)cc(N2CCN(C(=O)OC(C)(C)C)CC2)n1 [CBK003458]

SMILES: c1ccc(CCNc2nc(-c3cccs3)cn3ccnc23)nc1 [TH7528, N-(2-(pyridin-2-yl)ethyl)-6-(thiophen-2-yl)imidazo[1,2-a]pyrazin-8-amine]
Antagonism of cytarabine treatment [2]: mildly observed
Sensitization of THP-1 cells to cytarabine [2]: none of TH6342, TH7127, or TH7528 sensitized THP-1 cells to cytarabine

SMILES: Nc1ccccc1-c1cn2ccnc2c(NCCc2ccccn2)n1 [TH7126, 6-(2-aminophenyl)-N-(2-(pyridin-2-yl)ethyl)imidazo[1,2-a]pyrazin-8-amine]
Antagonism of cytarabine treatment [2]: antagonized cytarabine treatment

SMILES: NC(=O)NO [hydroxyurea, Hydroxyurea, reference compound]
Sensitization of THP-1 cells to cytarabine [2]: dose-dependently sensitized cells to cytarabine in a SAMHD1-dependent manner

SMILES: COc1ccccc1-c1cn2ccnc2c(NCCc2ccccn2)n1 [TH7127, 6-(2-methoxyphenyl)-N-(2-(pyridin-2-yl)ethyl)imidazo[1,2-a]pyrazin-8-amine]
Antagonism of cytarabine treatment [2]: mildly observed
Sensitization of THP-1 cells to cytarabine [2]: none of TH6342, TH7127, or TH7528 sensitized THP-1 cells to cytarabine

inhibition at 5 µM (recombinant SAMHD1 [1]): -0.91%
Hit (recombinant SAMHD1 [1]): 0
SMILES: CCOC(=O)c1cnc(N2CCOCC2)nc1NCCc1c[nH]c2ccccc12 [CBK093605]

inhibition at 5 µM (recombinant SAMHD1 [1]): 2.12%
Hit (recombinant SAMHD1 [1]): 0
SMILES: Cn1c(-c2nonc2N)nc2ccccc21 [CBK062642]

inhibition at 5 µM (recombinant SAMHD1 [1]): -0.0545%
Hit (recombinant SAMHD1 [1]): 0
SMILES: Fc1ccc(-c2cnn(-c3ccc(OC(F)(F)F)cc3)n2)c(F)c1 [CBK112740]

IC50 (recombinant SAMHD1 [3]): 3200 nM
SMILES: c1ccc(Oc2ccccc2-c2nccnc2NCCc2ccccn2)cc1 [CBK088614]

SMILES: N.N.[Cl][Pt][Cl] [CBK041610]
Inhibition (recombinant SAMHD1 [4]; Concentration 1.00E-05 M): 93.64%
Inhibition (recombinant SAMHD1 [4]; Concentration 4.00E-05 M): 95.03%

IC50 (recombinant SAMHD1 [3]): 9600 nM
SMILES: Clc1ccccc1-c1cn2ccnc2c(NCCc2ccccn2)n1 [TH6342, 6-(2-chlorophenyl)-N-(2-(pyridin-2-yl)ethyl)imidazo[1,2-a]pyrazin-8-amine]
Antagonism of cytarabine treatment [2]: mildly observed
Sensitization of THP-1 cells to cytarabine [2]: none of TH6342, TH7127, or TH7528 sensitized THP-1 cells to cytarabine

IC50 (recombinant SAMHD1 [3]): 920 nM
SMILES: CC(C)(C)c1ccc(NC(=O)N(CCN)Cc2c[nH]c(-c3ccccc3)n2)cc1 [CBK046297C]

IC50 (recombinant SAMHD1 [3]): 1600 nM
SMILES: Cc1ccc(-n2c(O)nnc2-c2ccc(Cl)c(Cl)c2)cc1 [CBK074887]

— PMC10839966, “Identification and evaluation of small-molecule inhibitors against the dNTPase SAMHD1 via a comprehensive screening funnel” (iScience, 2024)
